Results published in patent US8575364B2, “Modulators of serotonin receptor” (Janssen Pharmaceutica NV, priority 2008, dated 2013).

Chains of the proteins cited; added tags and fusions are not shown. Residues count along the entry.
UniProt P32305, 1-435: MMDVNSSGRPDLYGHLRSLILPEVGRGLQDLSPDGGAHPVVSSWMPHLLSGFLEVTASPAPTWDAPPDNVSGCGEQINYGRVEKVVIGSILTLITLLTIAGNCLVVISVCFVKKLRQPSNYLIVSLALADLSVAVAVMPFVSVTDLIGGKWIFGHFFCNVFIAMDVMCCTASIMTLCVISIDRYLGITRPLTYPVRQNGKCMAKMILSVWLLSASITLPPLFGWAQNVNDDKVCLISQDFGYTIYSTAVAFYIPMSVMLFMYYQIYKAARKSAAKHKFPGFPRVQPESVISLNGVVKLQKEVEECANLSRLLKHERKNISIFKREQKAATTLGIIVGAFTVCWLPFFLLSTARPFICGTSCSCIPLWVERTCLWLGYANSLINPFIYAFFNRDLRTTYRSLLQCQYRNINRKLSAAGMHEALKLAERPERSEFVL

Target: rat 5-HT7 receptors (Rattus norvegicus (Rat), UniProt P32305)
Assay: r5-HT7 competitive radioligand binding assay ([3H]5-CT)
Settings: membrane fractions of HEK-293 cells recombinantly expressing rat 5-HT7
Procedure: Compound affinity for the rat 5-HT7 receptor subtype was evaluated by competitive radioligand binding assays using 5-carboxamido[^3H]tryptamine ([^3H]5-CT) (Amersham Biosciences, cat. 90000403) detection. HitHunter™ cAMP assays are in-vitro based competitive immunoassays. […] Cells were pre-incubated with test compounds for 10 minutes. For agonistic testing, the concentration of test compound that produced a half-maximal response is represented by the EC50 value. Compounds were assayed in their free form or as salts, as indicated in the Examples section above.

| SMILES | Ki |
| --- | --- |
| Cc1ccc(-c2ccccc2C2CCN(C)C2)cc1C (racemic) [Example 58, (±)-3-(3′,4′-Dimethyl-biphenyl-2-yl)-1-methyl-pyrrolidine] | 0.155 µM |
| Cc1cccc(-c2ccccc2C2CCN(C)C2)c1 (racemic) [Example 53, (±)-1-Methyl-3-(3′-methyl-biphenyl-2-yl)-pyrrolidine] | 0.31 µM |
